The source of these data is ChEMBL document CHEMBL1149394, “Guiding farnesyltransferase inhibitors from an ECLiPS library to the catalytic zinc” (Bioorg Med Chem Lett, 2006).

One may read the pIC50 as the IC50 on a negative log10 scale, so that one unit is a factor of ten.

Each structure is given as a SMILES string. pIC50: −log10 of the molar value.

This assay has as its target Protein farnesyltransferase (Homo sapiens, UniProt P49354+P49356). Briefly: Inhibitory activity against farnesyltransferase quantified by SPA assay. It counts as protein-complex assay.

In turn, `CCCCC(=O)N1CCN(C2c3ccc(Cl)cc3CCc3cc(Br)cnc32)CC1C(=O)NCCc1c[nH]cn1` (stereo unspecified) gave a pIC50 of 7.92.
